The numbers were not newly measured in patent US20210069230A1, “SYNERGISTIC DRUG COMBINATIONS PREDICTED FROM GENOMIC FEATURES AND SINGLE-AGENT RESPONSE PROFILES” (THE BROAD INSTITUTE, INC., priority 2018, published 2021), which cites them from elsewhere.

Amino acid sequences for entries named in this document (tags omitted).
UniProt O35678, whole entry: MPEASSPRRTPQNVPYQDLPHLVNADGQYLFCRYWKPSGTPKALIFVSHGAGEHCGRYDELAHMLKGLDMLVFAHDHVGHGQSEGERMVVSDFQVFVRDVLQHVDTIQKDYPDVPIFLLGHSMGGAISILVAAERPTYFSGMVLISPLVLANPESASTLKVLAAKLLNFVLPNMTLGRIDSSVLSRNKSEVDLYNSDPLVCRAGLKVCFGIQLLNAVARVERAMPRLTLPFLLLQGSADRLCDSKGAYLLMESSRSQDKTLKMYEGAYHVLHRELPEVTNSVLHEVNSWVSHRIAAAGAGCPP

Structures are written as SMILES.

The target in this series is Monoacylglycerol lipase (MAGL) (Mus musculus, UniProt O35678). Particulars: dose of 4 mg/kg; cited from earlier work.

As to `O=C(Oc1ccc([N+](=O)[O-])cc1)N1CCC(C(O)(c2ccc3c(c2)OCO3)c2ccc3c(c2)OCO3)CC1` [JZL184, 4-nitrophenyl 4-(dibenzo[d][1,3]dioxol-5-yl(hydroxy)methyl)piperidine-1-carboxylate], the MAGL inhibited is listed as 75%.
